Amino acid sequences for entries named in this document (tags omitted). Residues count along the entry.
UniProt P52732, 18-359 limits assumed: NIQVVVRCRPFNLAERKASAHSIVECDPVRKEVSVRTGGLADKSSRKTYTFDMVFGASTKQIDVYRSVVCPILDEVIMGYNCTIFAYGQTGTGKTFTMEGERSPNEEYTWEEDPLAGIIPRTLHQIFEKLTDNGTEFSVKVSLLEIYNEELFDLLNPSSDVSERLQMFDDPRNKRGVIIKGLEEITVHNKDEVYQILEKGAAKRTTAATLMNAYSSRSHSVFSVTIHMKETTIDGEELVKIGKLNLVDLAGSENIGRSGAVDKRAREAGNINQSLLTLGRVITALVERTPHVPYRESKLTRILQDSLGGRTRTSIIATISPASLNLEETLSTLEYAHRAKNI

For the assay, the target named is KSP motor domain (Homo sapiens, UniProt P52732). The assay can be described thus: KSP endpoint assay (microtubule-stimulated ATPase, Biomol green, OD620). The assay is classed as biochemical. Particulars: KSP inhibitory activity, end-point assay; class symbols (Table 1).
Turning to `CNC(=O)c1cc2cc3c(nc2s1)CCC(C(C)(C)C)C3` (stereo not drawn), the IC50 was less than 0.1 µM.

`C[C@@H](CO)NC(=O)c1cc2cc3c(nc2s1)CCC(C(C)(C)C)C3` (stereo partly drawn): the IC50 fell in the range of 1 to 10 µM.

Molecule `CC(C)(C)C1CCc2nc3sc(C(=O)N4C[C@@H](O)C[C@@H]4C(=O)O)cc3cc2C1` (stereo partly drawn) returned an IC50 of more than 10 µM.

The record behind these values is patent US20060247320A1, “Compounds for inhibiting KSP kinesin activity” (priority 2005, published 2006).
